Assay results taken from ChEMBL document CHEMBL4130495, “Design, synthesis and biological evaluations of N-Hydroxy thienopyrimidine-2,4-diones as inhibitors of HIV reverse transcriptase-associated RNase H” (Eur J Med Chem, 2017).

Tested on: Human immunodeficiency virus 1
Test: Selectivity index, ratio of IC50 for inhibition of HIV1 integrase to IC50 for inhibition of RNH activity of recombinant HIV1 reverse transcriptase RNase H

`O=c1[nH]c2scc(-c3ccc(Cl)cc3)c2c(=O)n1O` gave a Ratio IC50 of 53.
